Marks after values point to notes of the source that are not given here.
Tests used:
[1] = DMPK study in vivo (single administration, plasma concentration by LC-MS/MS); settings: male C57 mice; for F % (oral bioavailability): intravenous 1 mg/kg, oral 10 mg/kg; for Cl (clearance rate) / Vdss (volume of distribution): intravenous administration of 1 mg/kg; for Oral DNAUC (AUCPO/Dose) / Cmax: oral administration of 10 mg/kg; for T1/2 (half-life): single administration; for Cmax: read-out: Cmax (maximum concentration)
Protocol: Experimental purpose: Male C57 mice were used as test animals to determine the blood concentration of the compound and evaluate the pharmacokinetic behavior after a single administration.
Experimental operation: 6 healthy adult male C57 mice were selected, 3 for the intravenous injection group and 3 for the oral group. The test compound was mixed with an appropriate amount of solvent^# of the intravenous injection group, and the mixture was vortexed and sonicated to prepare 1 mg/mL of a clear solution, which was filtered with a microporous membrane for later use. For oral group, the test compound was mixed with the solvent, and the mixture was vortexed and sonicated to prepare 1 mg/mL of a clear solution. After intravenous administration of 1 mg/kg or oral administration of 10 mg/kg to mice, whole blood was collected for a certain period of time, and plasma was prepared. The drug concentration was analyzed by LC-MS/MS method, and the pharmacokeneties parameters were calculated by Phoenix WinNonlin software (Pharsight, USA).
The solvent used in WXD004 was 20% polyethylene glycol 400/10% polyethylene glycol-15 hydroxystearate/70% H2O.

SD rat = assay: Rat oral glucose tolerance test (OGTT) in vivo; settings: 10 mg/kg single gavage
Protocol: 1. Animal: [table] 2. Experiment Grouping: [table] Experiment Process: 1. Animal Adaptation and Preparation: The experimental animals needed to be acclimatized in the animal room for 1 week after arriving at the facility. 2. Fasting and Administration The animals were fasted for 18 h in the metabolic cage, and drugs or solvents (2 mL/kg) were given according to the above table, and then 50% glucose solution (2 g/kg, 4 mL/kg) was administrated immediately. 3. Urine and Blood Sugar Test Two hours after the animals were given sugar, they resumed eating. The time points of 0 min, 15 min, 30 min, 45 min, 60 min and 120 min were collected for blood glucose determination; urine during 0-24 h was used for urine sugar (mg/200 g) and urine volume test respectively. 4. Data Analysis: All values will be expressed as average values. Statistical analysis was evaluated using Graphpad Prism 6 one-way analysis of variance Tukey's multiple comparison test. P value of less than 0.05 was considered of statistically significant.

SMILES	F % (oral bioavailability) [1] [%]	Cl (clearance rate) [1] [mL/min/kg]	Vdss (volume of distribution) [1] [L/kg]	Oral DNAUC (AUCPO/Dose) [1] [nM · h/mpk]	T1/2 (half-life) [1] [h]	Cmax [1] [nM]	OGTT glucose level AUC0-2 hr (SD rat; then 50% glucose solution 2 g/kg, solvent control group 1079)	Urine sugar level (SD rat; urine during 0-24 h, solvent control group 0.4) [mg/200 g BW]	Urine volume (SD rat; urine during 0-24 h, solvent control group 16.8) [mL/200 g BW]
CS[C@H]1O[C@@H](c2ccc(Cl)c(Cc3ccc(O[C@@H]4CCN([C@@H]5CO[C@H](c6cc(F)ccc6F)[C@@H](N)C5)C4)cc3)c2)[C@H](O)[C@@H](O)[C@@H]1O	10.2	20.7	13.2	113	13.4	171	–	–	–
CCc1ccc([C@@H]2O[C@H](SC)[C@@H](O)[C@H](O)[C@H]2O)cc1Cc1ccc(O[C@@H]2CCN([C@@H]3CO[C@H](c4cc(F)ccc4F)[C@@H](N)C3)C2)cc1 (single isomer, unassigned) [WXD001]	18.2	42.0	17.8	109	8.99	225	670**** mol/L × min	16.2	11.2

Reference: patent publication US12378277B2, “SGLTS/DPP4 inhibitor and application thereof” (DONGBAO PURPLE STAR (HANGZHOU) BIOPHARMACEUTICAL CO., LTD., priority 2019, dated 2025)
